Holding throughout (assay type): cell-based
Holding throughout (settings): n=3-8, read-out: pIC50 (Mean ± SEM) (converted)

The chains behind the UniProt entries cited, without tags or fusion partners.
UniProt Q96S37, whole entry F360A: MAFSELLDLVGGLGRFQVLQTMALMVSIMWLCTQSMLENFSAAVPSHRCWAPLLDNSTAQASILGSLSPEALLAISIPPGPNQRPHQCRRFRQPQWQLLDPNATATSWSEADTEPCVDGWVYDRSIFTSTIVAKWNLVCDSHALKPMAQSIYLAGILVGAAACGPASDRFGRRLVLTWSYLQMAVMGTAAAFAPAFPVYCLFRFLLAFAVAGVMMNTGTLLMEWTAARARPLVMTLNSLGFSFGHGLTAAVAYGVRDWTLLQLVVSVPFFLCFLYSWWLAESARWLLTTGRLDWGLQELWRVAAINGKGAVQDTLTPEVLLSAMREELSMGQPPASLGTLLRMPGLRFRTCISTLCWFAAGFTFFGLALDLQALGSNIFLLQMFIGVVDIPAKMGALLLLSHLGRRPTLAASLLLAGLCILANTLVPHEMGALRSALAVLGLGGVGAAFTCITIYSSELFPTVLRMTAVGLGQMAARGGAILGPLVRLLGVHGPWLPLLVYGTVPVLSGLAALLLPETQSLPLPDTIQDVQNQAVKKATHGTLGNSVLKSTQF
UniProt Q96S37, whole entry R477K: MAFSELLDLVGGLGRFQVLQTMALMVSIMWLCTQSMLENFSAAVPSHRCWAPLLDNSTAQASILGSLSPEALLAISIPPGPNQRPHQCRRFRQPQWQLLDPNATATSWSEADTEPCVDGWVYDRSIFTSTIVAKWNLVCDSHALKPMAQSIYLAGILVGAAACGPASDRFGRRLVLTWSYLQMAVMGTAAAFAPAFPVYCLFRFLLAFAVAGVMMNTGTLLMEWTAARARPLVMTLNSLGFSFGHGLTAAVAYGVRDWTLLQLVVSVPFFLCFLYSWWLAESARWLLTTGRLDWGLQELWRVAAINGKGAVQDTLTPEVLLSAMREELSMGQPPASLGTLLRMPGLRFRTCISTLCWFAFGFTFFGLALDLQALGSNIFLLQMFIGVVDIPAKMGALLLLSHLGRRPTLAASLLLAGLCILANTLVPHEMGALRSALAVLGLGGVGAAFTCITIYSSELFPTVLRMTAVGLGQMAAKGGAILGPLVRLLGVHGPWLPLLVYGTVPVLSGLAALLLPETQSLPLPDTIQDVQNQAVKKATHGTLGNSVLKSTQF
UniProt Q96S37, whole entry F449A: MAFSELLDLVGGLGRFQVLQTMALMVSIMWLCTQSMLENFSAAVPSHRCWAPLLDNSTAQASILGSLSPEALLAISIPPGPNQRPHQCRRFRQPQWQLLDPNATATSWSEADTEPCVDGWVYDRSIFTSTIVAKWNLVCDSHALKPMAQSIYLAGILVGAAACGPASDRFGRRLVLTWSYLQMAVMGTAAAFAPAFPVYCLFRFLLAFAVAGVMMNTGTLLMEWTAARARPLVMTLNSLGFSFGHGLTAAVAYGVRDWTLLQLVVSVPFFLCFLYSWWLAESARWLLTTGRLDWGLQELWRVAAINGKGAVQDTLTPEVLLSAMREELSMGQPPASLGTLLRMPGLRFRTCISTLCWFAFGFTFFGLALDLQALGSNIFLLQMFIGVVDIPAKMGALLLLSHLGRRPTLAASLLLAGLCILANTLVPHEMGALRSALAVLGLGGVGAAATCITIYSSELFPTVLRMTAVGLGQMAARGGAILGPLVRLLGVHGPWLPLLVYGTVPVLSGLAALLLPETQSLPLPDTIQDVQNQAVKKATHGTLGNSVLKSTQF

The target in one test is T1, hURAT1 F360A (Homo sapiens, UniProt Q96S37, F360A).
T1 construct: Flag; expressed in transfected cells; host or cells: HEK293
Description: 14C-urate uptake inhibition assay, hURAT1 F360A mutant in HEK293 cells. The method, then:
(§1) The cells were seeded at a density of 30,000 cells per well in Isoplate-96 plates (Perkin Elmer).

A further test deals with T2, hURAT1 R477K (Homo sapiens, UniProt Q96S37, R477K).
T2 construct: Flag; expressed in transfected cells; host or cells: HEK293
Description: 14C-urate uptake inhibition assay, hURAT1 R477K mutant in HEK293 cells. The method, then: as §1

Another test concerns the target T3, hURAT1 F449A (Homo sapiens, UniProt Q96S37, F449A).
T3 construct: Flag; expressed in transfected cells; host or cells: HEK293
Description: 14C-urate uptake inhibition assay, hURAT1 F449A mutant in HEK293 cells. Here is the method: as §1

Turning to `O=C(O)CSc1nnc(Br)n1-c1ccc(C2CC2)c2ccccc12` [lesinurad], the IC50 on hURAT1 F360A was 16.2 µM; at hURAT1 R477K, 37.2 µM; on hURAT1 F449A, 263 µM.

(Values after paper PMC11962085, “Molecular mechanisms of urate transport by the native human URAT1 and its inhibition by anti-gout drugs” (Cell Discovery, 2025).)
